The assay concerns the target Dipeptidyl peptidase 4 (Homo sapiens, UniProt P27487).

Sequences of proteins named here, by UniProt entry; tags and fusion partners are left off.
UniProt P27487, whole entry, looked up: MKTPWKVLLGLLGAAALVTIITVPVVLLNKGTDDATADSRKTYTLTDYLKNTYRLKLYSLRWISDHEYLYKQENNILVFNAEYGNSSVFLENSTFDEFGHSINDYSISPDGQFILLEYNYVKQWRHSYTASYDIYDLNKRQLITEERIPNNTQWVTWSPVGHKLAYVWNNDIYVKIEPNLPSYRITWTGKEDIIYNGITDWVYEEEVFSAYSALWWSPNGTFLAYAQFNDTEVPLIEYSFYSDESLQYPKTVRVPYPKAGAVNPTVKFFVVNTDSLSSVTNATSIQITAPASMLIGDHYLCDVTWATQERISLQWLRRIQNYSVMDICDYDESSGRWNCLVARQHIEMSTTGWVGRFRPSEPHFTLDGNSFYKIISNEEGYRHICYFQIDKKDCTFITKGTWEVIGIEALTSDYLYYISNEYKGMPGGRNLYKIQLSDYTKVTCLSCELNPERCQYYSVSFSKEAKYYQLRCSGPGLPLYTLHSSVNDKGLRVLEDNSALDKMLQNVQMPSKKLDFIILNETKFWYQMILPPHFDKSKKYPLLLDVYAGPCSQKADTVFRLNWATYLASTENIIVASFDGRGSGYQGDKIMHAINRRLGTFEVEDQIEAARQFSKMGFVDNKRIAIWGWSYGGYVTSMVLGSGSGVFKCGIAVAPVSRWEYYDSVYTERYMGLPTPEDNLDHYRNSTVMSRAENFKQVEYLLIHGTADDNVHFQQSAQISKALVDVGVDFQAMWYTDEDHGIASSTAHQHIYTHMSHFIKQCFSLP

SMILES strings stand for the structures.

Take `CC#CCN1C(N2CCC[C@H](N)C2)=NC2C1C(=O)N(C(C)c1nc(C)c3ccccc3n1)C(=O)N2C` (stereo partly specified): the IC50 amounted to 2.07 nM.

These data come from ChEMBL document CHEMBL4622831, “Anti-diabetic drugs recent approaches and advancements” (Bioorg Med Chem, 2020).
